Patent publication US11033547B2, “Carboxamide-pyrimidine derivatives as SHP2 antagonists” (Merck Patent GmbH, priority 2019, dated 2021)

Amino acid sequences for entries named in this document (tags omitted). A change or cut given only in a name is not applied to a line headed by its entry.
UniProt Q12809: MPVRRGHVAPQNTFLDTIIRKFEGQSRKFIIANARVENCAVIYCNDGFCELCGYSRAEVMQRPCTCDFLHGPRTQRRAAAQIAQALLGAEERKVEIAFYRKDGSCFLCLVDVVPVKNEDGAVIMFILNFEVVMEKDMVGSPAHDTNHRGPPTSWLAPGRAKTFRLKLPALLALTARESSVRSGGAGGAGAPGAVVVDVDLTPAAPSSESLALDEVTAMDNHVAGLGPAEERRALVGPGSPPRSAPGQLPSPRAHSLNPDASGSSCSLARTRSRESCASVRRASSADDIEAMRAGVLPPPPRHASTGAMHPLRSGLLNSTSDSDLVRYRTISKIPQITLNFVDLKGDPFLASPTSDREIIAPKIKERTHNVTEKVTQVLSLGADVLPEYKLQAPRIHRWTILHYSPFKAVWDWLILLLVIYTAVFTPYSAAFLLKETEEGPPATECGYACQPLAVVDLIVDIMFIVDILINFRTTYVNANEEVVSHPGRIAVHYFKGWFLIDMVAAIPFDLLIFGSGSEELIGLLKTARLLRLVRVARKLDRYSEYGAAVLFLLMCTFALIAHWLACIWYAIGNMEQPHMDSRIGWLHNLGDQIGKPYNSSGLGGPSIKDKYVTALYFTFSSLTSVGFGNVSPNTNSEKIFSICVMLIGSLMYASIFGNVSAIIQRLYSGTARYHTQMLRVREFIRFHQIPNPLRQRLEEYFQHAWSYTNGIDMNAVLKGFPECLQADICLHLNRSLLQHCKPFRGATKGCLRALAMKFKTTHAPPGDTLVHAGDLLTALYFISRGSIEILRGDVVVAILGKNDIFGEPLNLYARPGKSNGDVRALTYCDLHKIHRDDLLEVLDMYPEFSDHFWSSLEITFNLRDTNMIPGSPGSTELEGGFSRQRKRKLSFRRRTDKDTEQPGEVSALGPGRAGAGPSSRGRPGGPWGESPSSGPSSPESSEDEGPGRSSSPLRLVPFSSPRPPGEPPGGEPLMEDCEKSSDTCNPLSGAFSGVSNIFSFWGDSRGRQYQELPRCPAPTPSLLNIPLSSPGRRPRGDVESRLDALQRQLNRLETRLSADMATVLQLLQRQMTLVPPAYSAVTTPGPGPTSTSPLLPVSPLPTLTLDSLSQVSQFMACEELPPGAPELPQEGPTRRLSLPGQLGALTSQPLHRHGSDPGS

Biological target: Kv11.1 (hERG) ion channel (Homo sapiens (Human), UniProt Q12809)
Format: cell-based
Settings: ratio of hERG Ki (patch clamp) to pERK IC50 in KYSE520
Protocol: Inhibition of the ion channel hErg (or Kv11.1) current causes QT interval prolongation resulting in potentially fatal ventricular tachyarrhythmia called Torsade de Pointes.
hERG ion channel activity was assessed using a patch clamp technique in stable Kv11.1 (hERG) transfected human embryonic kidney cell line (HEK293). Whole cell recordings were carried out with an automated patch clamp device Patchliner™ from Nanion Technologies, Munich following manufacturer recommendation. Different concentrations of the test compound or reference, quinidine, were applied to whole cells suspension and current was measured using a pulse pattern with fixed amplitudes.

2-((S)-3-amino-3H-spiro[benzofuran-2,4′-piperidin]-1′-yl)-5-(2,3-dichlorophenyl)-6-methylpyrimidine-4-carboxamide [Compound 122]
Split between hErg and cell activity Ki(patch Clamp)/IC50 (KYSE): >50
